Assay results from US8153787B2 (priority 2005, dated 2012).

Key:
[1] = system: primate polyomavirus (SV40); assay type: cell-based, simian polyomavirus SV40
[2] = system: murine polyomavirus; assay type: cell-based

Nc1ncn(C[C@@H](CO)OCP(=O)(O)O)c(=O)n1 [Compound 3, (S)-1-[3-hydroxy-2-(Phosphonomethoxy)propyl]-5-azacytosine]
selectivity index SV40 PML-1 strain EK [1]: 40 | selectivity index SV40 PML-2 strain DAR [1]: 34 | selectivity index SV40 strain A2895 [1]: 40 | selectivity index 2PTA2 [2]: 33 | selectivity index LID-1 [2]: 22 | selectivity index MN/RDE Toronto [2]: 56 | selectivity index PTA [2]: 28

Nc1ccn(C[C@@H](CO)OCP(=O)(O)O)c(=O)n1 [HPMPC, (S)-1-(3-hydroxy-2-phosphonylmethoxypropyl)cytosine, reference compound]
selectivity index SV40 PML-1 strain EK [1]: 14 | selectivity index SV40 PML-2 strain DAR [1]: 14 | selectivity index SV40 strain A2895 [1]: 17 | selectivity index 2PTA2 [2]: 15 | selectivity index LID-1 [2]: 14 | selectivity index MN/RDE Toronto [2]: 31 | selectivity index PTA [2]: 13
